PubChem BioAssay AID932 (The Scripps Research Institute Molecular Screening Center, 2007)
Only a part is listed here, and it is no random draw. Activity calls are given as the source filed them.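 How the source made its calls: active means activation above the screen-wide mean activation plus 3 SD (cut at about 130% in these data); inactive means the rest.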

Assay: STAT1 signaling activators, primary screen, cell-based, HTS, luciferase reporter (AID 932);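 further: raw ratio to IFN-gamma control signal so 100% means no change and 0% no light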
Conditions: NIH 3T3 STAT1-luciferase reporter, IFN-gamma, luminescence; at 5.5 µM; hits give high values; 100% = IFN-gamma alone, no compound

| Structure (SMILES) | activation (% of control) |
| --- | --- |
| O=[N+]([O-])c1ccc2c(c1)nnn2O | inactive: 94.1% |
| CCOP1(=S)c2c(C)nn(CCC#N)c2N=C(c2ccc(F)cc2)N1C (centres undefined) | inactive: 95% |
| CCOP1(=S)c2c(C)nn(CCC#N)c2N=C(c2ccccc2F)N1C (centres undefined) | inactive: 103% |
| O=P(Nc1nccs1)(c1ccccc1)c1nc2ccccc2s1 (centres undefined) | inactive: 95.2% |
| O=P(Nc1nccs1)(Oc1ccccc1)Oc1ccccc1 | inactive: 93.1% |
| COc1cc(C2NCCC3(OCCO3)C2(C)C)cc(OC)c1OC (centres undefined) | inactive: 94.9% |
| CCOP(=O)(Nc1cccc2ccccc12)OCC | inactive: 95.8% |
| Cc1ccc(NCCc2c([N+](=O)[O-])cc([N+](=O)[O-])cc2[N+](=O)[O-])cc1 | inactive: 91.3% |
| Cc1cccc(OCC(=O)OC2CN3CCC2CC3)c1 (centres undefined) | inactive: 98.5% |
| COc1cc(C(=O)NCC2(N3CCOCC3)CCCCC2)cc(Cl)c1OC(C)C | inactive: 99.1% |
| CC1(CBr)Cn2c(nc3ccccc3c2=O)S1 (centres undefined) | inactive: 99.1% |
| CC(C)/C=N\N=C(\N)N[N+](=O)[O-] | inactive: 101% |
| Clc1n[nH]nc1-c1nn[nH][15n]1 | inactive: 102% |
| O=P1(Nc2ccccn2)COc2ccccc2OC1 | inactive: 101% |
| O=P1(Nc2ccc(Br)cn2)COc2ccccc2OC1 | inactive: 96.5% |
| Cc1ccc(OCC(=O)OC2CN3CCC2CC3)cc1 (centres undefined) | inactive: 93% |
| O=P1(Nc2ncccn2)COc2ccccc2OC1 | inactive: 104% |
| CN(C)C1(CNC(=O)c2ccc(S(C)(=O)=O)cc2)CCCCC1 | inactive: 104% |
| Cc1nn(-c2ccccc2)c2c1P(=O)(N1CCOCC1)N(C)C(c1ccccc1)=N2 (centres undefined) | inactive: 95.8% |
| CC1CCC(C(C)C)C(OP(=O)(Nc2ccccn2)c2ccccc2)C1 (centres undefined) | inactive: 102% |
| Cc1cc(SC(NC=O)C(Cl)(Cl)Cl)ncn1 (centres undefined) | inactive: 95.5% |
| O=P(Nc1ccccn1)(c1cccc2ccccc12)c1cccc2ccccc12 | inactive: 105% |
| Cc1cc(SC(NC(=O)c2ccccc2)C(Cl)(Cl)Cl)nc(C(C)C)n1 (centres undefined) | inactive: 100% |
| CCC(C)N(CC(C)C)C(=S)SC(NC(C)=O)C(Cl)(Cl)Cl (centres undefined) | inactive: 104% |
| O=C(COc1ccccc1)OC1CN2CCC1CC2 (centres undefined) | inactive: 93.6% |
| COP1(=S)c2c(C)nn(CCC#N)c2N=C(c2ccc(F)cc2)N1C (centres undefined) | inactive: 99.9% |
| COc1ccc(N/C(=N/P(=O)(N2CCOCC2)N2CCOCC2)N2CCOCC2)cc1 | inactive: 103% |

| Structure (SMILES) | activation (% of control) |
| --- | --- |
| COc1ccc2nc(NP(=O)(c3ccccc3)c3ccccc3)sc2c1 | inactive: 96.4% |
| O=C(OC1CN2CCC1CC2)C12CC3CC(CC(C3)C1)C2 (centres undefined) | inactive: 94.7% |
| Cc1cc(=O)[nH]c(N[N+](=O)[O-])n1 | inactive: 99.2% |
| Cc1c2c(nc3ccccc13)SC(C(Cl)Cl)C2 (centres undefined) | inactive: 109% |
| CCN(CC)C(=S)SC(NC=O)C(Cl)(Cl)Cl (centres undefined) | inactive: 94.6% |
| CC(C)NC(=O)NP(=O)(Oc1ccccc1)Oc1ccccc1 | inactive: 105% |
| O=[N+]([O-])c1cc([N+](=O)[O-])c(-c2ccn[nH]2)s1 | inactive: 88.7% |
| ClCCSc1nnc(-c2cccnc2)o1 | inactive: 105% |
| Cc1ccc2nc3c(c(C)c2c1)CC(C(Cl)Cl)S3 (centres undefined) | inactive: 122% |
| CCN(N=Nc1nonc1N)c1nonc1N | inactive: 93.4% |
| CCOP(=O)(Nc1ccccc1)OCC | inactive: 102% |
| Cc1cc(SC(NC(=O)c2ccc(F)cc2)C(Cl)(Cl)Cl)ncn1 (centres undefined) | inactive: 96.8% |
| CC(C)CC(=O)NC(Sc1ccc(Cl)cc1)C(Cl)(Cl)Cl (centres undefined) | inactive: 109% |
| Oc1ccccc1CNc1ccccn1 | inactive: 103% |
| Cc1c2non([O-])c-2c(C)[n+](=O)[n+]1[O-] | inactive: 90.6% |
| O=C(NC(Sc1ccncn1)C(Cl)(Cl)Cl)c1ccccc1 (centres undefined) | inactive: 102% |
| COc1ccccc1OP(=O)(Nc1ccc(C)cn1)Oc1ccccc1OC | inactive: 98.5% |
| Clc1ccc(Cl)c(NC2=NCC(CBr)S2)c1 (centres undefined) | inactive: 103% |
| CN1CCCC(OC(=O)C(c2ccccc2)c2ccccc2)C1 (centres undefined) | inactive: 107% |
| NC(=O)c1cc([N+](=O)[O-])cc([N+](=O)[O-])c1N | inactive: 98% |
| Cc1ccc(N/C(=N/P(=O)(N2CCOCC2)N2CCOCC2)N2CCOCC2)cc1 | inactive: 103% |
| CC(C)=N/N=C(\N)N[N+](=O)[O-] | inactive: 93.9% |
| CN(C)C(=O)OCCc1n(C)cc[n+]1C | inactive: 99.3% |
| CC1CCN(C(=O)Oc2c(Cl)cc(Cl)c3cccnc23)CC1 | inactive: 85.4% |
| CCN(/C(=N/P(=O)(N1CCOCC1)N1CCOCC1)N1CCOCC1)c1ccc(OC)cc1 | inactive: 97.5% |
| CC(=O)N1C2C3N(C(C)=O)C1C1N(C(C)=O)C(C(N1C(C)=O)N3C(C)=O)N2C(C)=O | inactive: 93.4% |
| O=[N+]([O-])c1cccc2n[nH]nc12 | inactive: 98.3% |

| Structure (SMILES) | activation (% of control) |
| --- | --- |
| Cc1ccc(NP(=O)(Oc2ccccc2)Oc2ccccc2)nc1 | inactive: 104% |
| O=[N+]([O-])c1cc([N+](=O)[O-])c(CCNc2ccccc2)c([N+](=O)[O-])c1 | inactive: 88.5% |
| CCc1nc2c(n1)c1c(non1O)c1c2no[n+]1[O-] | inactive: 93.6% |
| COc1ccc(C2=NCC(CBr)S2)cc1 (centres undefined) | inactive: 106% |
| O=[N+]([O-])c1ncn(CCn2ncnc2[N+](=O)[O-])n1 | inactive: 92.8% |
| C(Cc1nn[nH]n1)Cc1nn[nH]n1 | inactive: 104% |
| O=C(OC1CN2CCC1CC2)c1cccc(Cl)c1 (centres undefined) | inactive: 108% |
| CC(=O)NC(SC(=S)N(C)C)C(Cl)(Cl)Cl (centres undefined) | inactive: 105% |
| O=P(Nc1ccccn1)(c1ccc(Br)cc1)c1ccc(Br)cc1 | inactive: 90.1% |
| c1nnnn1CCn1cnnn1 | inactive: 99.1% |
| O=P(Nc1nccs1)(c1ccccc1)c1ccccc1 | inactive: 102% |
| CC(C)C(=O)NC(Sc1ccccc1)C(Cl)(Cl)Cl (centres undefined) | inactive: 103% |
| CC(=O)Nc1ccc(Oc2c([N+](=O)[O-])cc([N+](=O)[O-])cc2[N+](=O)[O-])cc1 | inactive: 94.8% |
| CC(C)(C)C(=O)NC(Sc1ccccc1)C(Cl)(Cl)Cl (centres undefined) | inactive: 92.1% |
| O=P1(Nc2nc3ccc(Cl)cc3s2)COc2ccccc2O1 (centres undefined) | inactive: 106% |
| CCOc1ccc(C2=NCC(CBr)S2)cc1 (centres undefined) | inactive: 101% |
| O=c1c2cc([N+](=O)[O-])ccc2[nH]c2c([N+](=O)[O-])cc([N+](=O)[O-])cc12 | inactive: 82.6% |
| COC(=O)c1cc2c(s1)N=C(c1ccccc1)N(C)P2(=O)N1CCOCC1 (centres undefined) | inactive: 96.6% |
| CC(=O)NC(SC(=S)N(CC(C)C)CC(C)C)C(Cl)(Cl)Cl (centres undefined) | inactive: 99.3% |
| Cc1ccc(OP(=O)(Nc2ccccn2)Oc2ccc(C)cc2)cc1 | inactive: 102% |
| CCC(=O)N1C2C3N(C(=O)CC)C1C1N(C(=O)CC)C(C(N1C(=O)CC)N3C(=O)CC)N2C(=O)CC | inactive: 100% |
| O=C(NC1CCS(=O)(=O)C1)NP(=S)(Oc1ccccc1)Oc1ccccc1 (centres undefined) | inactive: 101% |
| CCNC(=S)/N=C(\N)N[N+](=O)[O-] | inactive: 98.3% |
| c1ccc(-c2nn[nH]n2)c(-c2nn[nH]n2)c1 | inactive: 100% |
| CCOC(=O)NC(Sc1ccccc1)C(Cl)(Cl)Cl (centres undefined) | inactive: 87.2% |
